US8735412B2, “Sulfoximine-substituted anilinopyrimidine derivatives as CDK inhibitors, the production thereof, and use as medicine” (Bayer Intellectual Property GmbH, priority 2008, dated 2014)

Chains of the proteins cited; added tags and fusions are not shown. Residues count along the entry.
UniProt P35968, 20-1356: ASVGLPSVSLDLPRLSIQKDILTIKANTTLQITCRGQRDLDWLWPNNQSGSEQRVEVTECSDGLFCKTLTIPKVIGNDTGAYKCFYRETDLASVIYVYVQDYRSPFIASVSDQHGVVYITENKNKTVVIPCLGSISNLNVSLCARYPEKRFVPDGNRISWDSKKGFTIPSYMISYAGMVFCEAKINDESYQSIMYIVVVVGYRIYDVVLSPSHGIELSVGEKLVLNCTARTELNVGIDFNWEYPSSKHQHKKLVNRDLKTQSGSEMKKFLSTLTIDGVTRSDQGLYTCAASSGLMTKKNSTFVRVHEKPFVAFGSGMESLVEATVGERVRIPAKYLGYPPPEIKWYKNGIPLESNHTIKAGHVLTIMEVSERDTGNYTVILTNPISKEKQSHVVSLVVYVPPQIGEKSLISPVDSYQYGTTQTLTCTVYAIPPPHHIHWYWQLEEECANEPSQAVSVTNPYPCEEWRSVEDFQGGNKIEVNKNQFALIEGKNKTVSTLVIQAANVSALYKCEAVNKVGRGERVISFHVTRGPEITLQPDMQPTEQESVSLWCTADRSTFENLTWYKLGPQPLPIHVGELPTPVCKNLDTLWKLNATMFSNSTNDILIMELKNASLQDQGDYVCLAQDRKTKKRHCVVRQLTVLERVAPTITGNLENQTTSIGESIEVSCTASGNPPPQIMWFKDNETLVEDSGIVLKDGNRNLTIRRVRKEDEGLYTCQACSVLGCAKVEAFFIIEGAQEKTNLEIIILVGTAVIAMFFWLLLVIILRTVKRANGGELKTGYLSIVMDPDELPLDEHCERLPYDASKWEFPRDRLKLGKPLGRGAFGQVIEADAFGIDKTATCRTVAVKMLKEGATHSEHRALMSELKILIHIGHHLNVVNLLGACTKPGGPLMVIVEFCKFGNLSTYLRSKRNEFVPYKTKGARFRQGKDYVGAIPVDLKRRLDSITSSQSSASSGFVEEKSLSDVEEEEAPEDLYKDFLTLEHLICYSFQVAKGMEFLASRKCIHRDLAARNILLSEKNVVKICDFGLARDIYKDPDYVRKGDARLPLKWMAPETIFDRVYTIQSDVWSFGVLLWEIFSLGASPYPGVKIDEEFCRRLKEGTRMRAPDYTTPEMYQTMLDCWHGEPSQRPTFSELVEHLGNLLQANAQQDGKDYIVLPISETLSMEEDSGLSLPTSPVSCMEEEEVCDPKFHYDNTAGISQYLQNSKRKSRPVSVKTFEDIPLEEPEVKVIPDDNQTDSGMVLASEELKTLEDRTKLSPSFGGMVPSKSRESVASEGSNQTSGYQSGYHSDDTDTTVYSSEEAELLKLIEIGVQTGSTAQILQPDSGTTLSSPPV

Key:
[1] = target: T1, VEGF receptor tyrosine kinase-2 (Homo sapiens, UniProt P35968); assay: VEGF receptor-2 kinase assay (Assay 3); format: biochemical; conditions: 8 μM ATP, poly-(Glu4Tyr) substrate; read-out: VEGF-R2 (Assay 3) Concentration for 50% inhibition of enzyme activity, IC50
T1 construct: GST; made in house; host or cells: baculovirus-infected insect cells (Sf9)
Method: 10.3 Assay 3: VEGF Receptor-2 Kinase Assay
Recombinant VEGF receptor tyrosine kinase-2 was purified as GST fusion protein from baculovirus-infected insect cells (Sf9). Poly-(Glu4Tyr), used as kinase substrate, was purchased from the company Sigma.
VEGF receptor tyrosine kinase (90 ng/measuring point) was incubated for 10 min at 22° C. in the presence of various concentrations of test substances (0 μM, and within the range 0.001-30 μM) in 30 μl assay buffer [40 mM Tris/HCl pH5.5, 10 mM MgCl2, 1 mM MnCl2, 3 μM Na ortho-vanadate, 1.0 mM dithiothreitol, 8 μM adenosine triphosphate (ATP), 0.96 μg/measuring point poly-(Glu4Tyr), 0.2 μCi/measuring point ^33P-gamma ATP, 1.4% dimethylsulfoxide]. The reaction was stopped by adding EDTA solution (250 mM, pH8.0, 15 μl/measuring point).
From each reaction mixture, 15 μl was applied to P30 filter strips (from Wallac), and unincorporated ^33P-ATP was removed by washing the filter strips three times, for 10 min each time, in 0.5% phosphoric acid. […] The amount of incorporated ^33P (substrate phosphorylation) was determined by scintillation measurement in a gamma-radiation measuring instrument (Wallac). […] The IC50 values were determined by means of a 4-parameter fit using the company's own software.

CDK2/CycE = target: T2, CDK2/CycE (Homo sapiens, UniProt P24941); assay: CDK2/CycE kinase assay (Assay 2); format: biochemical; conditions: 0.5 μM ATP, histon IIIS substrate; read-out: CDK2/CycE (Assay 2) Concentration for 50% inhibition of enzyme activity, IC50
T2 construct: purchased ProQinase GmbH, Freiburg; host or cells: baculovirus-infected insect cells (Sf9)
Method: 10.2 Assay 2: CDK2/CycE Kinase Assay
Recombinant CDK2 and CycE-GST fusion proteins, purified from baculovirus-infected insect cells (Sf9), were purchased from ProQinase GmbH, Freiburg. Histon IIIS, used as kinase substrate, was purchased from the company Sigma. CDK2/CycE (50 ng/measuring point) was incubated for 10 min at 22° C. in the presence of various concentrations of test substances (0 μM, and within the range 0.01-100 μM) in assay buffer [50 mM Tris/HCl pH8.0, 10 mM MgCl2, 0.1 mM Na ortho-vanadate, 1.0 mM dithiothreitol, 0.5 μM adenosine triphosphate (ATP), 10 μg/measuring point histon IIIS, 0.2 μCi/measuring point ^33P-gamma ATP, 0.05% NP40, 1.25% dimethylsulfoxide]. The reaction was stopped by adding EDTA solution (250 mM, pH8.0, 15 μl/measuring point).
From each reaction mixture, 15 μl was applied to P30 filter strips (from Wallac), and unincorporated ^33P-ATP was removed by washing the filter strips three times, for 10 min each time, in 0.5% phosphoric acid. After drying the filter strips for 1 hour at 70° C., the filter strips were covered with scintillator strips (MeltiLex™ A, from Wallac) and stoved for 1 hour at 90° C. The amount of incorporated ^33P (substrate phosphorylation) was determined by scintillation measurement in a gamma-radiation measuring instrument (Wallac). […] The IC50 values were determined by means of a 4-parameter fit using the company's own software.

Row | Structure (SMILES) | IC50 [1] [nM] | IC50 (CDK2/CycE) [nM]
1 | C[C@@H](Nc1nc(Nc2ccc([S@](=N)(=O)C3CC3)cc2)ncc1Br)C(C)(C)O [Example V11, (R)-S-[4-({5-bromo-4-[(R)-(2-hydroxy-1,2-dimethylpropyl)amino]pyrimidin-2-yl}amino)phenyl]-S-cyclopropyl-sulfoximide] | 59 | 
2 | C[C@@H](O)[C@@H](C)Oc1nc(Nc2ccc(S(C)(=N)=O)cc2)ncc1Br (some centres unmarked) [Example V13] |  | 4
